# Laboratory results taken from PubChem BioAssay AID373 (The Scripps Research Institute Molecular Screening Center, 2006).
# Sequences of proteins named here, by UniProt entry; tags and fusion partners are left off.
# UniProt Q99500, whole entry: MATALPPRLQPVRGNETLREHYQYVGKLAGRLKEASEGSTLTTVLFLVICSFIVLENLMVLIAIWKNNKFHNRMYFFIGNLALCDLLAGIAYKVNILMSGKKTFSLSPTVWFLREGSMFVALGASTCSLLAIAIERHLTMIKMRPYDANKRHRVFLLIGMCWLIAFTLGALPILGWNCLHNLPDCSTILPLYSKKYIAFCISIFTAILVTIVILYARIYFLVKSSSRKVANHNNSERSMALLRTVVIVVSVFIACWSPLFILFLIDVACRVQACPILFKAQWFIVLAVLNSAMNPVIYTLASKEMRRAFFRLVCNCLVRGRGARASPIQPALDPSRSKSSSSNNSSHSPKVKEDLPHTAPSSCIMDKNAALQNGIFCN
# Only a part is listed here, and it is no random draw. The source made the active and inactive calls.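 The calls were made as follows: active = activation above the screen-wide mean plus 3 SD (cut at about 4.5% in these data, passing the limit was not always enough); inactive = the rest, inconclusive results apart.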
# Biological target: Sphingosine 1-phosphate receptor 3 (Homo sapiens) (UniProt Q99500)
# Test: activators of S1P3 receptor signaling – cell-based, primary and confirmation, NFAT-BLA reporter, primary screen (AID 373)
# Conditions: S1P3 NFAT-BLA reporter cells, agonism, FRET ratio; at 4.5 µM; stronger effect = higher value; relative to 1 µM S1P, basal subtracted
row,SMILES,activation
1,CCN(CC)CC(O)COC(=O)C(O)(c1ccccc1)C1CCCCC1 (stereo unspecified),inactive: -4.2%
2,COc1ccccc1OP(C)(=O)Nc1c(C)n(C)n(-c2ccccc2)c1=O (stereo unspecified),inactive: -0.1%
3,CP(=O)(Oc1ccccc1)N1CCOC1=O (stereo unspecified),inactive: 0%
4,Cc1nc2ccc3ccccc3c2o1.O=[N+]([O-])c1cc([N+](=O)[O-])c(O)c([N+](=O)[O-])c1,inactive: -0.3%
5,COc1ccccc1OP(C)(=O)Nc1ccc(C)c(C)c1 (stereo unspecified),inactive: 0%
6,CP(=O)(Nc1ccccn1)Oc1ccccc1 (stereo unspecified),inactive: -1.3%
7,CP(=O)(Nc1ccccc1F)Oc1ccccc1 (stereo unspecified),inactive: -0.2%
8,CN(C)CCOC(=O)C(O)(c1ccccc1)C1CCCCC1 (stereo unspecified),inactive: -0.9%
9,Cc1ccccc1NP(C)(=O)Nc1ccccc1C,inactive: 0.6%
10,CCOP(C)(=S)SCC(=O)NC(C)(CC)C(=O)O (stereo unspecified),inactive: 0.7%
11,Cc1nc2ccc3ccccc3c2s1.O=[N+]([O-])c1cc([N+](=O)[O-])c(O)c([N+](=O)[O-])c1,inactive: -0.5%
12,Cc1ccc(C)c(NP(C)(=O)Oc2ccccc2)c1 (stereo unspecified),inactive: -0.9%
13,Cc1ccc(NP(C)(=O)Oc2ccccc2)c(C)c1 (stereo unspecified),inactive: -2.2%
14,COc1ccccc1OP(C)(=O)Nc1ccc(C)cc1 (stereo unspecified),inactive: -0.8%
15,CP(=S)(Nn1cnnc1)Oc1ccccc1 (stereo unspecified),inactive: 0.2%
16,CCOP(C)(=S)SCC(=O)NC(C)C(=O)O (stereo unspecified),inactive: -1.8%
